In PMC7695835, “Pharmacological characterisation of novel adenosine A3 receptor antagonists” (Scientific Reports, 2020):

Assay: in vitro
Settings: human, liver microsomes

## Cc1nc(C(=N)NOC(=O)c2c(-c3c(Cl)cccc3Cl)noc2C)cs1 [Compound K18, O4-{[3-(2,6-dichlorophenyl)-5-methylisoxazol-4-yl]carbonyl}-2-methyl-1,3-thiazole-4-carbohydroximamide]
  microsomal CLint at 0.1 μM: 287 µL/min/mg
